One series deals with zebrafish embryos. The series is described as follows: Control injections (RuBEP, scramble morpholino) in zebrafish embryos: toxicity and development. It counts as in vivo. The settings on record: injected at 1-cell stage (500 μM), dark or irradiated at 450 nm. The protocol:
FIG. 31, comprising FIGS. 31A-31C, is a series of images of zebrafish embryos treated with RuBEP+/−light in vivo with control. FIG. 31A is an image depicting an uninjected wildtype zebrafish embryo. FIG. 31B is an image depicting a zebrafish embryo injected at the 1-cell stage with 500 μM RuBEP and incubated in the dark. FIG. 31C is an image depicting a zebrafish embryo injected at the 1-cell stage with 500 μM RuBEP and irradiated (450 nm, 14 mW/cm^2, 15 min).
FIG. 32, comprising FIGS. 32A-32B, is a series of images of zebrafish embryos treated with scramble morpholino in vivo with control. FIG. 32A is an image depicting an uninjected wildtype zebrafish embryo. FIG. 32B is an image depicting a zebrafish embryo injected at the 1-cell stage with 500 μM standard scramble control morpholino (see sequence, Table S9).
Zebrafish embryos were obtained. All embryos obtained were TLF×TLF WT. Zebrafish embryo injection solutions were prepared to contain a final concentration of 0.1 M KCl and 0.25% phenol red dye. All injections were performed at the one-cell stage and injected into the cell compartment only. A Harvard Apparatus PLI-100 pico-injector was used to inject controlled volumes. Injection volume was calibrated to dispense 5 nL per embryo. Zebrafish embryos were incubated at 28° C. in E3 zebrafish medium. […]

Where “and” joins values, the source holds several entries; their conditions need not be identical. Identical values can stand only once. Entries after “also recorded” stand apart in the source; their conditions may differ.

In the case of “[Ru(bipyridine)2(3-ethynyl- pyridine)2]^2+ [RuBEP]”, the “Toxicity / development of injected embryos” value in the series on zebrafish embryos is “remain healthy and develop normally; also recorded: no toxicity or phenotypic response; also recorded: normal development”. The “Quantum yield of photorelease (ligand exchange)” value (450 nm, in water under ambient oxygen (air)) is 0.33 and 0.33+/−0.06 and 0.33±0.06. Moreover, under “at 450 nm”, the “Uncaging efficiency (ε450 times φ)” value was determined as 2000 M⁻¹ cm⁻¹.

The values above are taken from patent US11046721B2, “Ruthenium-based photolinkers and methods of use” (The Trustees of the University of Pennsylvania, priority 2014, dated 2021).
